# Patent US10221179B2, “Substituted pyrazoloquinazolinones and pyrroloquinazolinones as allosteric modulators of group II metabotropic glutamate receptors” (DOMAIN THERAPEUTICS, priority 2014, dated 2019)
# Protein sequences, listed by entry. Tags and fused reporters are not part of them. Residues count along the entry.
# UniProt Q14416, 19-872: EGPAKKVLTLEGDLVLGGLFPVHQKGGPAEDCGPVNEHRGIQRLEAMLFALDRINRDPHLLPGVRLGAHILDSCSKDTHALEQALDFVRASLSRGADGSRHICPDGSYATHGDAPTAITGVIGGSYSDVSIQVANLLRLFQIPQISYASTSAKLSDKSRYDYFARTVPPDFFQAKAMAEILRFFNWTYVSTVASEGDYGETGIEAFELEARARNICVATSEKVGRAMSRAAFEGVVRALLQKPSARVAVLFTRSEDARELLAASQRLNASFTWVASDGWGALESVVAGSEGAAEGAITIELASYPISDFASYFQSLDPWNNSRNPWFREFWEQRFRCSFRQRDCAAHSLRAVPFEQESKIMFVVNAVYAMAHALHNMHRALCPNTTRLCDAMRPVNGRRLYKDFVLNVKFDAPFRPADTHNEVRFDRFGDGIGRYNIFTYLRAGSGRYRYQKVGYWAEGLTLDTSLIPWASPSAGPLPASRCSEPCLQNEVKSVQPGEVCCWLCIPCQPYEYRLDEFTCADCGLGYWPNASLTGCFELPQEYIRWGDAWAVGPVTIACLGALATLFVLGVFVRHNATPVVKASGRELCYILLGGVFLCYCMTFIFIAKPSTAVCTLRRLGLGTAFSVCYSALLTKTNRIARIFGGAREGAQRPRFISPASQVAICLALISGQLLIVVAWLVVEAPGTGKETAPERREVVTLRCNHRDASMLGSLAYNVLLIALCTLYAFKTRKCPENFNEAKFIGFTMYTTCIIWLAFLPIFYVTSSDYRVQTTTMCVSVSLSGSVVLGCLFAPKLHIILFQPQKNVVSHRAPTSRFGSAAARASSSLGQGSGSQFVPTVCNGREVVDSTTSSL
# Molecular target: T1, human mGluR2 (hmGluR2) (Homo sapiens, UniProt Q14416)
# T1 construct: expressed in transfected cells; host or cells: HEK-293 cells, transient co-transfection by electroporation
# Experiment: Ca++ functional assay, human mGluR2 transiently over-expressed in HEK-293 cells (agonist and negative allosteric modulator modes)
# Assay type: cell-based
# Experimental: Example 127: Human mGluR2 and mGluR3 Evaluation Using Ca^++ Functional Assay
# Examples of the present invention were tested successively for their agonist and negative allosteric modulator activities on human mGluR2 (hmGluR2) and mGluR3 (hmGluR3) transiently over-expressed in HEK-293 cells. Compounds exert agonist activity if, by themselves in absence of glutamate, they are able to activate hmGluR2 or hmGluR3; and they exert negative allosteric modulator activity if they decrease the action of glutamate (which is employed at its EC80 concentration).
# Cell Culture and Transfection […]
# Receptor activity is detected by changes in intracellular calcium measured using the fluorescent Ca^2+ sensitive dye, Fluo4AM (Molecular Probes).
# On the day of the assay, culture medium is aspirated and replaced during 3 hours by medium without serum supplemented with 1% Glutamax, 1% Penicillin/Streptomycin and 1% non-essential amino acids. […] Addition of compounds and intracellular Ca^2+ measurements (excitation 485 nm, emission 525 nm) are performed by the fluorescence microplate reader FLIPRTetra (Molecular Devices).
# Agonist and negative allosteric modulator activities of compounds are consecutively evaluated on the same cell plate. […] Then, cells are stimulated by an EC80 glutamate concentration and fluorescence is recorded for additional 3 minutes. […]
row,SMILES,IC50 [nM]
1,"Cn1c(=O)c2ccc(-c3ccc(N)nc3)cc2n2nc(-c3ccccc3)cc12 [A, reference compound]",< 100
2,"Cn1c(=O)c2ccc(-c3cccc(S(N)(=O)=O)c3)cc2n2nc(-c3ccccc3)cc12 [B, reference compound]",< 100
